Experimental data reported in patent publication US20170051065A1 (Hoffmann-La Roche, published 2017).
Read-outs that look alike come from different tables or passages of the source.

What was measured:
Test in all cases: cell-based or functional assay
[1] = target: T1, human wildtype CSF-1R (wt CSF-1R) (human, UniProt P07333 20-972)
[2] = target: T1, human wildtype CSF-1R (wt CSF-1R); remark: listed apart in the source
[3] = target: T1, human wildtype CSF-1R (wt CSF-1R); remark: listed apart in the source

Row | Binder | IC50 CSF-1R Phosphorylation (ELISA phospho/total receptor, NIH3T3-CSF-1R cells stimulated with hu CSF-1) [2] [µg/mL] | IC50 of inhibition of survival of human monocytes cultured with huCSF-1 (CellTiterGlo) [1] [µg/mL] | IC50 of inhibition of survival of human monocytes cultured with huCSF-1 (CellTiterGlo) [3] [µg/mL]
1 | hMab 2F11-f12 (antibody, V domains shown) VH: QVQLVQSGAEVKKPGSSVKVSCKASGFSLTTYDISWVRQAPGQGLEWMGVIWTDGGTNYNSPFMSRVTITKDESTSTAYMELSSLRSEDTAVYYCVRDQRLYFDVWGQGTTVTVSS VL: DIQMTQSPSSLSASVGDRVTITCRASEDVNTYVSWYQQKPGKAPKLLIYGASSLQSGVPSRFSGSGSGTDFTLTISSLQPEDFATYYCGQSFSYPTFGQGTKLEIK | – | 0.09 | –
2 | Mab 1G10 (antibody, V domains shown) VH: RVQLKESGPGLVAPSQSLSITCTVSGFSLTSYDISWIRQSPGKGLEWLGVIWSGGGTNYNSPFMSRLRISKDDSRSQVFLKVNRLQTDDTAIYYCVRDLRLYFDVWGAGTTVTVSS VL: KIVMTQSPKSMSVSVGERVSLSCKASEDVGTYVSWYQQKPEQSPKLLIYGSSNRYTGVPDRFTGSGSATDFTLTISSVQAEDLADYSCGQSFTYPTFGTGTKLEIK | 0.0566 | – | 0.06
3 | Mab 2E10 (antibody, V domains shown) VH: QVQLKESGPGLVAPSKSLSITCTVSGSSLDSFDISWIRQSPGKGLEWLGVIWTGGGTNYNSGFMSRLRITKDNSKSQVLLKMNSLQSDDTAIYYCVRDPRLYFDVWGAGTTVTVSS VL: NIVMTQSPKSMSMSVGERVTLSCKASEDVVTYVSWYQQKPDQSPKLLIYGASNRYTGVPDRFTGSGSATDFTLTISSVQAEDLADYYCGQTFSYPTFGTGTKLEIK | 0.752 | – | 0.06

Second part, led by results:

Row | IC50 CSF-1R Phosphorylation (ELISA phospho/total receptor, NIH3T3-CSF-1R cells stimulated with hu CSF-1) [2] [µg/mL] | Binder | IC50 of inhibition of survival of human monocytes cultured with huCSF-1 (CellTiterGlo) [1] [µg/mL] | IC50 of inhibition of survival of human monocytes cultured with huCSF-1 (CellTiterGlo) [3] [µg/mL]
4 | 0.219 | Mab 2F11 (antibody, V domains shown) VH: QVQLKESGPGLVAPSQSLSITCTVSGFSLTTYDISWIRQSPGKGLEWLGVIWTDGGTNYNSPFMSRLSIRKDNSKSQVFLKMNRLQTDDTAIYYCVRDQRLYFDVWGAGTTVTVSS VL: NIVMTQSPKSMSMSVGERVTLNCKASEDVNTYVSWYQQQPEQSPKLLIYGASNRYTGVPDRFTGGGSTTDFTLTISSVQAEDLADYFCGQSFSYPTFGTGTKLEIK | – | 0.08
5 | 0.703 | Mab 2H7 (antibody, V domains shown) VH: QVQLKESGPGLVAPSKSLSITCTVSGSSLDSFDISWIRQPPGKGLEWLGVIWTGGGTNYNSGFMSRLRISKDNSKSQVFLKMSSLQSDDTAIYYCVRDPRLYFDVWGAGTTVTVSS VL: NIVMTQSPKSMSMSVGERVTLSCKASEDVVTYVSWYQQKPEQSPKLLIYGASNRYTGVPDRFTGSGSATDFTLTISSIQAEDLADYYCGQTFSYPTFGTGTKLEIK | – | 0.03
